Literature values in US7176183B2, “Methods for treating and preventing damage to mucosal tissue” (University of Southern California, priority 1999, dated 2007).

Target: T1, AT2 receptor (Homo sapiens, UniProt P50052)
T1 sequence (P50052 1-363): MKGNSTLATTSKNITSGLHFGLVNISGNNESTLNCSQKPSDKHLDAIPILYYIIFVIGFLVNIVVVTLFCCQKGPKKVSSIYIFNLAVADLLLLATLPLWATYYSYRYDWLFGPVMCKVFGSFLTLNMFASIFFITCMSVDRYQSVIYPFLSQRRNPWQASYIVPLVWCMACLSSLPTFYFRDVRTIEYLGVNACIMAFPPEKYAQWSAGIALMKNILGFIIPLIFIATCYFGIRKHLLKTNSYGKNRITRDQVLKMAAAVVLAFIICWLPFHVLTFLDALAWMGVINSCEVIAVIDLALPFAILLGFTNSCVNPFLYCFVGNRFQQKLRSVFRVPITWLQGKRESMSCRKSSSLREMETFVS
Conditions: experimental models tested; cited from earlier work

Asp-Arg-Val-Tyr-Ile-Xaa-Pro-Phe [p-aminophenylalanine6-AII]
Binding characteristics: comparable to AT2 antagonists
